Screening results: PubChem, ICCB-Longwood Screening Facility, Harvard Medical School
Many of the other results were omitted from the sample, so hits are more common in it than they were.
HCMV UL50-53 inh: inhibitors of HCMV UL50-UL53 interaction, biochemical, HTRF | HCMV UL50-UL53 nuclear egress complex (human cytomegalovirus) | normalized percent inhibition | inhibition, % (concentration not given with the values) | actives 0.15% (n = 190,000) | AID 1918969, 2023; in the data active = inhibition above about 27%, passing the limit was not always enough
GIV-Gai inh: inhibitors of GIV GBA-motif binding to rat Galpha-i3. actives 0.42% (n = 210,000). Galpha-i3/FITC-GIV peptide fluorescence polarization, 90 min; active compounds read low; scaled: aluminum fluoride 0%, vehicle 100%. AID 1224905. percent of control (FP), % (no concentration beside the values). P08753;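 active means replicate mean at 85% of control or lower, very high polarization wells dropped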;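 further: wells of about 15 µL received 100 nL stock; the first replicate is given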
GIV Gai FP conf: inhibitors of GIV peptide binding to Galpha-i3, confirmation, biochemical, fluorescence polarization, FITC-GIV peptide, rat Galphai3; shares compounds with GIV-Gai inh; active compounds read low; fluorescence polarization, mP at 100 µM; actives 38% (n = 580); AID 1259350, 2017;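 active = inhibition score of 15 or more, meaning 100 minus mean polarization as percent of control over three replicates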;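 note: lower mP means peptide displaced from Galphai3 so more inhibition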
GIV Gai AS conf: inhibitors of GIV binding to Galpha-i3, confirmation, orthogonal assay for GIV-Galpha-i inhibitor project, biochemical, AlphaScreen, His-GIV, GST-Galphai3; AID 1259351, 2017; AlphaScreen counts at 100 µM; purified proteins, 90 min; active compounds read low; actives 39% (n = 580); shares compounds with GIV-Gai inh;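 active = inhibition score at or above a set limit, where the score is 100 minus the three-replicate mean percent of control signal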
Each line names hits and unclear results; the compound was inactive in the other large screens (follow-up assays come after a bar, where they were run).

CCOc1ccc(-c2nonc2NC(=O)C(C)Oc2ccc(F)cc2)cc1C (stereo not given)	GIV-Gai inh 84.2 | GIV Gai FP conf inactive | GIV Gai AS conf inactive
CCOc1ccc(-c2nonc2NC(=O)C(C)Oc2ccc(CC)cc2)cc1C (stereo not given)	none
[N-]=[N+]=c1c(=O)ccc2c(=O)c3ccccc3c(=O)c1=2	GIV-Gai inh 62.7 | GIV Gai FP conf 44.1 | GIV Gai AS conf 2044
C=CCN1C(=O)S/C(=C/c2ccc(N3CCOCC3)cc2)C1=O	none | GIV Gai FP conf inactive | GIV Gai AS conf inactive
O=C1S/C(=C\c2ccccc2)C(=O)N1CN1CCOCC1	none
CCc1nc2ccccc2c(C(=O)OCC#N)c1C	none (no result: GIV-Gai inh)
Cc1ccc(/C=C2/SC(=O)NC2=S)o1	GIV-Gai inh 79.8 (no result: HCMV UL50-53 inh) | GIV Gai FP conf 56.8 | GIV Gai AS conf 2262
Cc1ccc(/C=C2\SC(=O)NC2=O)o1	none (no result: GIV-Gai inh)
COC(=O)c1ccsc1NC(=O)c1cccc(S(C)(=O)=O)c1	none
COC(=O)c1ccsc1NC(=O)c1cccc(C)c1	GIV-Gai inh 65.4 | GIV Gai FP conf inactive | GIV Gai AS conf inactive
CC(C)C(NC(=O)CSc1ccc(Cl)cc1)C(=O)O (stereo not given)	none (no result: GIV-Gai inh)
CC(=Nc1ccccc1O)c1sc2ccccc2c1O	none
CC(=Nc1ccccc1Br)c1sc2ccccc2c1O	GIV-Gai inh 71.5 | GIV Gai FP conf inactive | GIV Gai AS conf inactive
Cc1[nH]c(C(=O)N2CCN(c3ccccc3F)CC2)c(C)c1S(=O)(=O)N1CCOCC1	none
O=S(=O)(Cc1ccccc1)N1CCCN(c2nc3cc(Cl)ccc3n3cccc23)CC1	none
COc1ccc(N2C(=O)/C(=C/c3ccc(OCC(=O)O)c(Br)c3)C(=O)NC2=S)cc1	GIV-Gai inh 78.5 | GIV Gai FP conf 44.6 | GIV Gai AS conf 20466
COc1ccc(N2C(=O)NC(=O)/C(=C\c3ccc(OCC(=O)O)c(Br)c3)C2=O)cc1	none
COc1ccc(C)cc1NC(=O)Nc1cccc(OCc2cc(=O)n3ccc(C)cc3n2)c1	none (no result: HCMV UL50-53 inh)
CCOC(=O)c1ccc(NC(=O)Nc2cccc(OCc3cc(=O)n4ccc(C)cc4n3)c2)cc1	GIV-Gai inh 84.7 (no result: HCMV UL50-53 inh) | GIV Gai FP conf inactive | GIV Gai AS conf inactive
Oc1ccc(Br)cc1C=Nc1ccc2n[nH]nc2c1	none (no result: HCMV UL50-53 inh)
N#CC1=C(N)Oc2cc(O)ccc2C1c1ccccc1 (stereo not given)	none
CCN(CC)c1ccc2c(c1)OC(N)=C(C#N)C2c1cccc(F)c1 (stereo not given)	none | GIV Gai FP conf inactive | GIV Gai AS conf inactive
O=c1/c(=C/c2cc(-c3ccccc3)n(-c3ccc([N+](=O)[O-])cc3)c2-c2ccccc2)sc2nc3ccccc3n12	none
COc1ccc(/C=c2\sc3nc(-c4ccccc4)c(-c4ccccc4)n3c2=O)c(OC)c1OC	none (no result: HCMV UL50-53 inh) | GIV Gai FP conf inactive | GIV Gai AS conf inactive
COc1ccc(/C=c2\sc3nc(-c4ccccc4)c(-c4ccccc4)n3c2=O)cc1OC	none (no result: HCMV UL50-53 inh)
O=C1/C(=C/c2cccnc2)CCC/C1=C\c1cccnc1	GIV-Gai inh 49.1 | GIV Gai FP conf 53 | GIV Gai AS conf inactive
O=C1/C(=C/c2cccnc2)CC/C1=C\c1cccnc1	none (no result: HCMV UL50-53 inh)
C=CCNc1nc2c([nH]c3ccccc32)s1	none (no result: HCMV UL50-53 inh) | GIV Gai FP conf 56.3 | GIV Gai AS conf 13174
C=CCSc1nnc2c(n1)[nH]c1ccccc12	none
CC1(C)S[C@H]2C(NC(=O)C(NC(=O)N3CCN(S(C)(=O)=O)C3=O)c3ccccc3)C(=O)N2C1C(=O)O (stereo not given in full)	none (no result: GIV-Gai inh)
O=C1C(Cc2ccccc2)N=C(N2CCN(c3ccc(Cl)cc3)CC2)N1c1ccccc1 (stereo not given)	none
c1cc2c(cc1CNc1nc3nonc3nc1NCc1ccc3c(c1)OCO3)OCO2	none
CCOC(=O)c1nc2cc(C)c(C)cc2nc1NCc1ccc2c(c1)OCO2	GIV-Gai inh 80.4 | GIV Gai FP conf inactive | GIV Gai AS conf inactive
Cc1nn(-c2ccccc2)c2nc(-c3ccc4c(c3)OCO4)cc(-c3nnc4n3CCCCC4)c12	none (no result: GIV-Gai inh)
COc1ccc(/C=C2\C=C(c3ccccc3)N(c3ccc(Br)cc3C)C2=O)cc1Br	none (no result: HCMV UL50-53 inh)
COc1ccc(/C=C2\C=C(c3ccccc3)N(c3ccc(Br)cc3C)C2=O)cc1	GIV-Gai inh 34.3 (no result: HCMV UL50-53 inh) | GIV Gai FP conf inactive | GIV Gai AS conf inactive
CCCN1CCN(S(=O)(=O)c2c(C)[nH]c(C(=O)OCC)c2C)CC1	none
CCOC(=O)N1CCC(NC(=O)Nc2cn(C)c(=O)c3ccccc23)CC1	none
Cc1c(C(=O)NC(C)C)oc2c1-c1[nH]ncc1CC2	HCMV UL50-53 inh 70.3, GIV-Gai inh 68.5 | GIV Gai FP conf 51.2 | GIV Gai AS conf 26222
Cc1cccc(NC(=O)c2oc3c(c2C)-c2[nH]ncc2CC3)c1C	none
O=c1cc(Cn2nc3c(-c4nc(-c5ccccc5)no4)cccn3c2=O)nc2ccccn12	none (no result: HCMV UL50-53 inh) | GIV Gai FP conf 42.4 | GIV Gai AS conf inactive
CCOC(=O)Cn1nc2c(-c3nc(-c4ccc(Cl)cc4)no3)cccn2c1=O	none (no result: HCMV UL50-53 inh)
O=C(/C=C\c1ccccc1)OCCCN1C(=O)c2cccc3c(N4CCOCC4)ccc(c23)C1=O	none
COCC(C)Nc1nc(-c2ccc(OC)cc2OC)cs1 (stereo not given)	none (no result: GIV-Gai inh)
CCC(CC)C(=O)OCc1cc(=O)n2nc(C)sc2n1	none
CC1CCN(C(=O)Cn2c(=O)c3ccccc3n3c(=S)sc(-c4ccccc4F)c23)CC1	GIV-Gai inh 81.3 | GIV Gai FP conf inactive | GIV Gai AS conf inactive
CCOC(=O)C1CCCN(C(=O)Cn2c(=O)c3ccccc3n3c(=S)sc(-c4ccccc4F)c23)C1 (stereo not given)	none
O=c1[nH]c2ccccc2nc1NCc1ccccc1	none
Nc1nc(NCc2ccccc2)c(I)c(=O)[nH]1	HCMV UL50-53 inh 65.8, GIV-Gai inh 50.2 | GIV Gai FP conf 46.3 | GIV Gai AS conf 2457
Cc1ccc(CSc2ncnc3nc[nH]c23)cc1	none
Cc1nc(-c2ccc(Cl)c(S(=O)(=O)N3CCCC(C(=O)NC4CCC(C)CC4)C3)c2)no1 (stereo not given)	none (no result: HCMV UL50-53 inh)
Nc1c(-c2nc(-c3ccc(F)cc3)cs2)c2ccccn2c1C(=O)c1ccc2c(c1)OCO2	GIV-Gai inh 74.9 | GIV Gai FP conf inactive | GIV Gai AS conf inactive
Cc1ccc(-c2csc(-c3c(N)c(C(=O)c4ccc5c(c4)OCO5)n4ccccc34)n2)cc1C	none
CCCC(=O)Nc1ccc2[nH]c(=O)[nH]c2c1	none (no result: GIV-Gai inh)
CC(=O)Nc1ccc2sc(C)nc2c1	none
CC(=O)Nc1ccc2nc3c(=O)[nH]c(=O)[nH]c3nc2c1	GIV-Gai inh 66.1 | GIV Gai FP conf 58.1 | GIV Gai AS conf 5170
CCCCCCC(=O)Nc1ccc2nc3c(=O)[nH]c(=O)[nH]c3nc2c1	GIV-Gai inh 83.2 | GIV Gai FP conf 44.3 | GIV Gai AS conf 16182
OC1(c2ccccc2F)CCNCC1	none
Cc1ccc(OCC(=O)OCC(N)=O)cc1C	none (no result: GIV-Gai inh)
CCOc1ccc2ccccc2c1/C=C(\C#N)C(=O)NCc1ccco1	none
